Reference: patent US20230348487A1, “2-AMINOPYRIMIDINE COMPOUND AND PHARMACEUTICAL COMPOSITION THEREOF AND APPLICATION THEREOF” (GUANGZHOU SALUSTIER BIOSCIENCES CO., LTD., priority 2021, published 2023)

Sequences of proteins named here, by UniProt entry; tags and fusion partners are left off. A change or cut given only in a name is not applied to a line headed by its entry.
UniProt P52333: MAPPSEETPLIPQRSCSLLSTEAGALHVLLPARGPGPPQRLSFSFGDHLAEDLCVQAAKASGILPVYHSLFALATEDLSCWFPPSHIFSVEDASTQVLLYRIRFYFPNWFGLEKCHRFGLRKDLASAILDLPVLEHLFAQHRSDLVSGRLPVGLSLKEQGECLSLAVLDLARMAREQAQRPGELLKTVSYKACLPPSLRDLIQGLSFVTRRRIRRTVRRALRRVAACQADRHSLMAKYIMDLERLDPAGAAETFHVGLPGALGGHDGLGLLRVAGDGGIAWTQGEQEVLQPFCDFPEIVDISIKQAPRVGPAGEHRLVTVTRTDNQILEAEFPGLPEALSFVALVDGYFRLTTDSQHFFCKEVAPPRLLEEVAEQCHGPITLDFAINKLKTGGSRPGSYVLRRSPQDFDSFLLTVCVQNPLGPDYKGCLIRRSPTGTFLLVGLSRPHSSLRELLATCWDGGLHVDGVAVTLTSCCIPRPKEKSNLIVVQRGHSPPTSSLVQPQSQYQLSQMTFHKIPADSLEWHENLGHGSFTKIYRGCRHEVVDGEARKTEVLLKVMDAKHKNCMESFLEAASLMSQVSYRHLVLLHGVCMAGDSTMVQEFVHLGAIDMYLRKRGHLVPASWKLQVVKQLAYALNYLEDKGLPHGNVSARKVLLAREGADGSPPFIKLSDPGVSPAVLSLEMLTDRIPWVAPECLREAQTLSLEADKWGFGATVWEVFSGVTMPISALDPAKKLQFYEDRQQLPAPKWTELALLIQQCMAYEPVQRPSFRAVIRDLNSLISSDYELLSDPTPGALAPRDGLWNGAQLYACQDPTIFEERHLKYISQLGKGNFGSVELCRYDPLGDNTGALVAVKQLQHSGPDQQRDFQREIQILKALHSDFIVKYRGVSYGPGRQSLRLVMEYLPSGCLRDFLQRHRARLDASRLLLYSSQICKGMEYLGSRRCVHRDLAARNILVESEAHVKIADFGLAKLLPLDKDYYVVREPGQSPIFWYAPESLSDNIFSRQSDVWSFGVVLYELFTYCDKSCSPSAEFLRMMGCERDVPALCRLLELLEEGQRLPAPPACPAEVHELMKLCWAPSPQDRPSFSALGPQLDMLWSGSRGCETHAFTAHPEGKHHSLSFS

Target: JAK3 (Homo sapiens (Human), UniProt P52333)
Assay: Z′-Lyte kinase inhibitory activity test
Type: biochemical

## C=CC(=O)Nc1cc(Nc2ncc(Cl)c(O[C@@H]3CO[C@H]4[C@@H]3OC[C@H]4OC)n2)ccc1N(C)CCN(C)C [LS 6-45]
  JAK3 kinase inhibitory activity and selectivity (in words): strong and selective JAK3 kinase inhibitory activity
